Biological target: endogenous polycystin-1 (PC1), human (human (endogenous in RCTE), UniProt P98161 24-4303)
Assay: co-IP

The chains behind the UniProt entries cited, without tags or fusion partners. Residues count along the entry.
UniProt P98161, 24-4303: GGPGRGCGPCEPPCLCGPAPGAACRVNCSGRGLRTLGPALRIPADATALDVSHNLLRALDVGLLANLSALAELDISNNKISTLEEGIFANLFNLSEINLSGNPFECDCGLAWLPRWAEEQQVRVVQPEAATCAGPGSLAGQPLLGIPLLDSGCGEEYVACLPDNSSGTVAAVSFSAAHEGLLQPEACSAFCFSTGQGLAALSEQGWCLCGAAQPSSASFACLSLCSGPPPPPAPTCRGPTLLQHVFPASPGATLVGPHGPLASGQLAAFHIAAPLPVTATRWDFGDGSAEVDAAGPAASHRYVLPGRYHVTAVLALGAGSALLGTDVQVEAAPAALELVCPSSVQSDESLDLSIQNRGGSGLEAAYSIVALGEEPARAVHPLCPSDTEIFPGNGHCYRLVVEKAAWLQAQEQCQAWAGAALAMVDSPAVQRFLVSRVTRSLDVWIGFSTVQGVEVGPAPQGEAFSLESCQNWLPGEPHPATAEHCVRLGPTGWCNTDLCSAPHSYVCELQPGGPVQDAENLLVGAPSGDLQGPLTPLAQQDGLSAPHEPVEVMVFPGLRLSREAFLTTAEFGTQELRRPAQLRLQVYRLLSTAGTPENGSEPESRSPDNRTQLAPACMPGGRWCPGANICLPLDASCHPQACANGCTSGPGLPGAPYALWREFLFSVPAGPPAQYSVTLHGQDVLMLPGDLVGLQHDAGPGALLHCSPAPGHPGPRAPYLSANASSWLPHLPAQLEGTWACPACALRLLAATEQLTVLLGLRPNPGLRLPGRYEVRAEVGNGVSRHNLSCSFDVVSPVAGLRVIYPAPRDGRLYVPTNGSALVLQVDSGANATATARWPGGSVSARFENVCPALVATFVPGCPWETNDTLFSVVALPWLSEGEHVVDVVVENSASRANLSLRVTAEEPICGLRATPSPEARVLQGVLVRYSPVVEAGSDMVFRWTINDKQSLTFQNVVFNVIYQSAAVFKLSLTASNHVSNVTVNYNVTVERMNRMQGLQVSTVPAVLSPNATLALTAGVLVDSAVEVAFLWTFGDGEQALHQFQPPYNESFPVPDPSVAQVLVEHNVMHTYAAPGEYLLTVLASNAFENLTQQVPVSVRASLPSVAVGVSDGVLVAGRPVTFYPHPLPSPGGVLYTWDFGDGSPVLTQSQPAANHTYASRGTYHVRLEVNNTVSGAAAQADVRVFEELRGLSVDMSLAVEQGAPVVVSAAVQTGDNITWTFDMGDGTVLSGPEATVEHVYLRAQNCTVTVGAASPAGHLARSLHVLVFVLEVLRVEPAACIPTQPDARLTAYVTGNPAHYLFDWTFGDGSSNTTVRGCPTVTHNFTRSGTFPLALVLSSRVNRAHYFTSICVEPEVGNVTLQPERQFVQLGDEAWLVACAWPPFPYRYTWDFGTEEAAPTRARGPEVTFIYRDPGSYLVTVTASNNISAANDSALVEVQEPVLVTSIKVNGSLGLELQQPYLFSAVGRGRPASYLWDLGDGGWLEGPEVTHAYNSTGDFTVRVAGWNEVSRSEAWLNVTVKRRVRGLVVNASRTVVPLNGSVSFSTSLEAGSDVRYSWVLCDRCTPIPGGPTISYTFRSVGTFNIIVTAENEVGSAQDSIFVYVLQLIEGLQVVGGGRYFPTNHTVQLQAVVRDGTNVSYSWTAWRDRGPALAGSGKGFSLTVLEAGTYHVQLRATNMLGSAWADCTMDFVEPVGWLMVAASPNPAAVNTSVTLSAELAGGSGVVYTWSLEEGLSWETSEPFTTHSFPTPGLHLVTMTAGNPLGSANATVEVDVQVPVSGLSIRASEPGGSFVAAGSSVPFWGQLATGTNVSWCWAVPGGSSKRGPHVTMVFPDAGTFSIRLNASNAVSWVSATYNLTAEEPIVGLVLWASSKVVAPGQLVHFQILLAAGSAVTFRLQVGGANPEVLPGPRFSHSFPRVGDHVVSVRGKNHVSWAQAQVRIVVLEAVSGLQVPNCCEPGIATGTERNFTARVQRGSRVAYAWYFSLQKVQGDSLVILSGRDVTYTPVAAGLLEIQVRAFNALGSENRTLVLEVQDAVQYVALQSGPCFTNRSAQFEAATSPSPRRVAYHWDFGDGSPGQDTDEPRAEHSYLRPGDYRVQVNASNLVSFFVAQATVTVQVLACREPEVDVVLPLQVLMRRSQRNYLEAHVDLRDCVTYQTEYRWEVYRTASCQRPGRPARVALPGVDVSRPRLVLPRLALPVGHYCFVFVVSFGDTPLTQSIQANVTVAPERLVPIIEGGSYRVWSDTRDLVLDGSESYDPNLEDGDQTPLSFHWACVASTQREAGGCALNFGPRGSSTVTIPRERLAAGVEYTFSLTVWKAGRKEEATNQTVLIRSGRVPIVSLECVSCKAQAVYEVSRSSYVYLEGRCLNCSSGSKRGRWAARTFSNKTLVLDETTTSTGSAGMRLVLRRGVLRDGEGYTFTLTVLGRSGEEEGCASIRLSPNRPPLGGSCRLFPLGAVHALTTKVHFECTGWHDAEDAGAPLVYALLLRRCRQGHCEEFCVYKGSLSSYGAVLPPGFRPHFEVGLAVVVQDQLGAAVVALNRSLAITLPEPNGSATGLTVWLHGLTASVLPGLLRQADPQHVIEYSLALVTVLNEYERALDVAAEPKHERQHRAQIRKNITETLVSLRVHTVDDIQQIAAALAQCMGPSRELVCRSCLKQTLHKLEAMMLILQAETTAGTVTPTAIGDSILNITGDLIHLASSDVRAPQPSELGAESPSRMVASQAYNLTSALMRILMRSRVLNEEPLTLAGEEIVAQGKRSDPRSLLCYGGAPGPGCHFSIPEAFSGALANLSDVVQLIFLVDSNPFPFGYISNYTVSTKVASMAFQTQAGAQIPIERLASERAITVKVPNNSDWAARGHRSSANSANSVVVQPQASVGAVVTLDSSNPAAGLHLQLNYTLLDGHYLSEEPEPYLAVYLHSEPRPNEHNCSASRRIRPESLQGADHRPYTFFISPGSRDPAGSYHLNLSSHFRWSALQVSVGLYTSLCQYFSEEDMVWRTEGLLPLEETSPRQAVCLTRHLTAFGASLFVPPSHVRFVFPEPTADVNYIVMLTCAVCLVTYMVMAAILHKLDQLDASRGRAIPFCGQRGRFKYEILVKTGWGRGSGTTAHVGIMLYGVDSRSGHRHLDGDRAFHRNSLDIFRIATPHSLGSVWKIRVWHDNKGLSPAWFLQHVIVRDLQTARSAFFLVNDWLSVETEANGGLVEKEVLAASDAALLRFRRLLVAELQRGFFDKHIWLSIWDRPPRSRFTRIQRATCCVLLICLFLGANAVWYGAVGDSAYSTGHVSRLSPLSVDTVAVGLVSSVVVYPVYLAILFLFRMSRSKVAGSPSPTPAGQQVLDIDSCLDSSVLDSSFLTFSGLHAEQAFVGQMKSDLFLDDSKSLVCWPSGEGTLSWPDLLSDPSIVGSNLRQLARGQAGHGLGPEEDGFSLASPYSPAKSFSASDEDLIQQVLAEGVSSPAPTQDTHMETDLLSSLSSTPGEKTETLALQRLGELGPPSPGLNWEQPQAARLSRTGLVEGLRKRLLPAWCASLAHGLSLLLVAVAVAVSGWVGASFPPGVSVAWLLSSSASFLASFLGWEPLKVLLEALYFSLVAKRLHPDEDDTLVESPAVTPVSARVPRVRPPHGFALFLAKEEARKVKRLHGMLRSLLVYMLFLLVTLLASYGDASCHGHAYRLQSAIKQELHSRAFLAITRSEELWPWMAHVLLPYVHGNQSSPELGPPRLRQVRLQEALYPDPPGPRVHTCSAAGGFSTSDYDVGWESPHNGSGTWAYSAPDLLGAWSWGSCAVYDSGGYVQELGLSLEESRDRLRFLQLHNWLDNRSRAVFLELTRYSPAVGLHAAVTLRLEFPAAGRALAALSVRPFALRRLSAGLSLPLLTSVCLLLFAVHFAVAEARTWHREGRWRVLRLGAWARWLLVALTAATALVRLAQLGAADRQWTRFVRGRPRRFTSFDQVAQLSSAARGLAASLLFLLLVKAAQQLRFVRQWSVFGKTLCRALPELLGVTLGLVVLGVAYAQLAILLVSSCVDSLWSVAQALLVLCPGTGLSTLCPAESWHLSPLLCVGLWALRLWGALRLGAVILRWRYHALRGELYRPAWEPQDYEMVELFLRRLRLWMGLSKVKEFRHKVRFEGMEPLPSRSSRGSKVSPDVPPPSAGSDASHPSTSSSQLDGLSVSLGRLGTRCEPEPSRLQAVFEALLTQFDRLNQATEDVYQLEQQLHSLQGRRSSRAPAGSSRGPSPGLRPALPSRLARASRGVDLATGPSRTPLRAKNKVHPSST

B1: endogenous Arf4, human (natural protein, human (endogenous in RCTE), UniProt P18085 1-180, looked up)
chain: MGLTISSLFSRLFGKKQMRILMVGLDAAGKTTILYKLKLGEIVTTIPTIGFNVETVEYKNICFTVWDVGGQDRIRPLWKHYFQNTQGLIFVVDSNDRERIQEVADELQKMLLVDELRDAVLLLFANKQDLPNAMAISEMTDKLGLQSLRNRTWYVQATCATQGTGLYEGLDWLSNELSKR
- fold enrichment of the coprecipitated protein compared with control IgG: 5.64 fold

B2: ArfGAP with SH3 domain, ankyrin repeat and PH domain 1 (ASAP1), human, endogenous (natural protein)
chain: not shown
- fold enrichment of the coprecipitated protein compared with control IgG: ≥ 5.2 fold

Reference: article PMC3172256 (Molecular Biology of the Cell, 2011)
